# According to PMC2882293 (Neuropharmacology, 2010):
# Protein sequences, listed by entry. Tags and fused reporters are not part of them.
# UniProt P47746, whole entry: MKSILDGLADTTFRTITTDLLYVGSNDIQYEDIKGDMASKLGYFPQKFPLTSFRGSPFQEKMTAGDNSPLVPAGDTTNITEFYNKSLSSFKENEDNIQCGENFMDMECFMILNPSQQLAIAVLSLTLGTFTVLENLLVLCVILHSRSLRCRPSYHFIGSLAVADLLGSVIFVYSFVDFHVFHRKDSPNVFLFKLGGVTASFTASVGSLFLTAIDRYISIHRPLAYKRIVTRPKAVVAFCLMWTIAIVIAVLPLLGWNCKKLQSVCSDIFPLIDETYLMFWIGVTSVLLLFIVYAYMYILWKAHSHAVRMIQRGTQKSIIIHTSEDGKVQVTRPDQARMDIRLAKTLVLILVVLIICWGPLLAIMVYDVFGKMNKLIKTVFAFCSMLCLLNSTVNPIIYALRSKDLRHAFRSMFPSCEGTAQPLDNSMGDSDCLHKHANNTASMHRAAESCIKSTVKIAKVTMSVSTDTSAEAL
# Molecular target: cannabinoid type 1 receptor (CB1R) (Mus musculus, UniProt P47746)
# Experiment: whole-cell electrophysiology, inhibition of synaptic GABA IPSCs in CA1 neurons
structure (smiles),measurement,value
CCCCCc1cc(O)c2c(c1)OC(C)(C)[C@@H]1CCC(C)=C[C@@H]21 [Δ^9-THC],EC50,1220 nM
